This is a selection; strong and weak results do not stand in their true shares. Activity calls are given as the source filed them.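 How the source made its calls: active means mean lysis activity across replicates of at least 80%, whatever share of replicates individually reach that level; inactive means mean lysis activity below 80%.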
Experiment: Cryptococcus neoformans cell lysis inducers, primary screen, AK release luminescence, single concentration (AID 651654)
Conditions: C. neoformans lysis, adenylate kinase release luminescence, 4 h; at 15 µM; stronger effect = higher value; normalised: neutral wells 0, clomiphene wells 100
Procedure, shortened: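 Test system: log-phase Cryptococcus neoformans yeast cells. Input: 5 × 10^6 yeast cells/mL. Medium: fresh YPD growth medium. Doses: single dose. Incubation: static 4 h at 37 °C with compound, 1 h detection. Measured by: luminescent adenylate kinase detection reagent. Read-out: signal increase indicating cell lysis. Benchmarks: Clomiphene.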

Row | Structure (SMILES) | lysis activity
1 | CCC(=O)N(c1ccccc1)C1(COC)CCN(CCn2nnn(CC)c2=O)CC1 | inactive: -0.448%
2 | CCC(=O)N(c1ccccc1)C1(COC)CCN(CCc2cccs2)CC1 | inactive: 1.26%

Source: PubChem BioAssay AID651654 (Broad Institute, 2012)
